{"source": "patent US11331351B2", "about": "“Bacillus strains improving health and performance of production animals” (priority 2015, dated 2022)", "system": "S. aureus ATCC 29213", "assay": "microbe, parasite or virus in culture", "details": "Staphylococcus aureus", "note": "Like-named read-outs stand apart in the source and are kept apart here.", "data": [{"smiles": "O=C(N[C@H](CO)[C@H](O)c1ccc([N+](=O)[O-])cc1)C(Cl)Cl", "note": "[Chloramphenicol]", "values": [{"measurement": "MIC", "setting": "ATCC29213, read-out: MIC 1", "value": "8 to 16", "unit": "µg/mL"}, {"measurement": "MIC", "setting": "ATCC29213, read-out: MIC 3", "value": 8, "unit": "µg/mL"}]}, {"smiles": "CC[C@H]1OC(=O)[C@H](C)[C@@H](O[C@H]2C[C@@](C)(OC)[C@@H](O)[C@H](C)O2)[C@H](C)[C@@H](O[C@@H]2O[C@H](C)C[C@H](N(C)C)[C@H]2O)[C@](C)(O)C[C@@H](C)C(=O)[C@H](C)[C@@H](O)[C@]1(C)O", "note": "[Erythromycin]", "values": [{"measurement": "MIC", "setting": "ATCC29213, read-out: MIC 1", "value": 0.5, "unit": "µg/mL"}, {"measurement": "MIC", "setting": "ATCC29213, read-out: MIC 2", "value": 0.5, "unit": "µg/mL"}, {"measurement": "MIC", "setting": "ATCC29213, read-out: MIC 3", "value": 0.5, "unit": "µg/mL"}, {"measurement": "MIC", "setting": "ATCC29213, read-out: MIC 4", "value": 0.5, "unit": "µg/mL"}, {"measurement": "MIC", "setting": "ATCC29213, read-out: MIC 5", "value": 0.5, "unit": "µg/mL"}]}, {"smiles": "NC[C@H]1O[C@H](O[C@H]2[C@H](O)[C@@H](O[C@H]3O[C@H](CO)[C@@H](O)[C@H](N)[C@H]3O)[C@H](N)C[C@@H]2N)[C@H](O)[C@@H](O)[C@@H]1O", "note": "[Kanamycin]", "values": [{"measurement": "MIC", "setting": "ATCC29213, read-out: MIC 1", "value": 4, "unit": "µg/mL"}, {"measurement": "MIC", "setting": "ATCC29213, read-out: MIC 2", "value": 4, "unit": "µg/mL"}, {"measurement": "MIC", "setting": "ATCC29213, read-out: MIC 3", "value": 4, "unit": "µg/mL"}, {"measurement": "MIC", "setting": "ATCC29213, read-out: MIC 4", "value": 4, "unit": "µg/mL"}, {"measurement": "MIC", "setting": "ATCC29213, read-out: MIC 5", "value": 4, "unit": "µg/mL"}]}, {"smiles": "[H]/N=C(/N)N[C@H]1[C@H](O)[C@@H](O)[C@H](O[C@@H]2O[C@@H](C)[C@](O)(C=O)[C@H]2O[C@@H]2O[C@@H](CO)[C@H](O)[C@@H](O)[C@@H]2NC)[C@@H](N/C(N)=N\\[H])[C@@H]1O", "note": "[Streptomycin]", "values": [{"measurement": "MIC", "setting": "ATCC29213, read-out: MIC 1", "value": 8, "unit": "µg/mL"}, {"measurement": "MIC", "setting": "ATCC29213, read-out: MIC 2", "value": 8, "unit": "µg/mL"}, {"measurement": "MIC", "setting": "ATCC29213, read-out: MIC 3", "value": 8, "unit": "µg/mL"}, {"measurement": "MIC", "setting": "ATCC29213, read-out: MIC 5", "value": 8, "unit": "µg/mL"}]}, {"smiles": "CN(C)[C@@H]1C(O)=C(C(N)=O)C(=O)[C@@]2(O)C(O)=C3C(=O)c4c(O)cccc4[C@@](C)(O)[C@H]3C[C@@H]12", "note": "[Tetracycline]", "values": [{"measurement": "MIC", "setting": "ATCC29213, read-out: MIC 1", "value": 0.5, "unit": "µg/mL"}, {"measurement": "MIC", "setting": "ATCC29213, read-out: MIC 2", "value": 1, "unit": "µg/mL"}, {"measurement": "MIC", "setting": "ATCC29213, read-out: MIC 3", "value": 1, "unit": "µg/mL"}, {"measurement": "MIC", "setting": "ATCC29213, read-out: MIC 4", "value": 0.5, "unit": "µg/mL"}, {"measurement": "MIC", "setting": "ATCC29213, read-out: MIC 5", "value": 0.5, "unit": "µg/mL"}]}, {"smiles": "CN[C@H](CC(C)C)C(=O)N[C@H]1C(=O)N[C@@H](CC(N)=O)C(=O)N[C@H]2C(=O)N[C@H]3C(=O)N[C@H](C(=O)N[C@H](C(=O)O)c4cc(O)cc(O)c4-c4cc3ccc4O)[C@H](O)c3ccc(c(Cl)c3)Oc3cc2cc(c3O[C@@H]2O[C@H](CO)[C@@H](O)[C@H](O)[C@H]2O[C@H]2C[C@](C)(N)[C@H](O)[C@H](C)O2)Oc2ccc(cc2Cl)[C@H]1O", "note": "[Vancomycin]", "values": [{"measurement": "MIC", "setting": "ATCC29213, read-out: MIC 1", "value": 0.5, "unit": "µg/mL"}, {"measurement": "MIC", "setting": "ATCC29213, read-out: MIC 2", "value": 1, "unit": "µg/mL"}, {"measurement": "MIC", "setting": "ATCC29213, read-out: MIC 3", "value": 1, "unit": "µg/mL"}, {"measurement": "MIC", "setting": "ATCC29213, read-out: MIC 4", "value": 1, "unit": "µg/mL"}, {"measurement": "MIC", "setting": "ATCC29213, read-out: MIC 5", "value": 1, "unit": "µg/mL"}]}]}
